Experimental data as given in ChEMBL document CHEMBL1148371, “Sulfonyl-containing aldophosphamide analogues as novel anticancer prodrugs targeted against cyclophosphamide-resistant tumor cell lines” (J Med Chem, 2004).

Legend:
P388 [1] = test: In vivo antitumor activity against P388/0 (wild) leukemia in mice measured by increase in life span after 400 mg/kg compound administration
[2] = Half life period in phosphate buffer (0.08 M); format: ADME
Summary of the method: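 Prodrug was incubated in 0.08 M phosphate buffer pH 7.4 at 37 °C with shaking, mostly at 3–9 mM (0.8 or 0.3 mM for some). Incubation was stopped with 2.0 M acetate pH 5.0 plus EtOH. Parent compound was quantified by silica TLC (UV 254 nm or NBP stain) and densitometry against a zero-time control. kobs came from the ln(% remaining) versus time slope; t1/2 = 0.693/kobs.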

P388/CPA [3] = test: In vivo antitumor activity against P388/CPA leukemia (resistant) in mice measured by increase in life span after 400 mg/kg compound administration
[4] = Half life period in human plasma using phosphate buffer (0.08 M); format: ADME, cell-free
P388 [5] = test: In vivo antitumor activity against P388/0 (wild) leukemia in mice measured by increase in life span after 200 mg/kg compound administration
P388/CPA [6] = test: In vivo antitumor activity against P388/CPA leukemia in mice (resistant) measured by increase in life span after 100 mg/kg compound administration
P388/CPA [7] = test: In vivo antitumor activity against P388/CPA leukemia (resistant) in mice measured by increase in life span after 200 mg/kg compound administration
P388 [8] = test: In vivo antitumor activity against P388/0 (wild) leukemia in mice measured by increase in life span after 100 mg/kg compound administration
[9] = Half life period in phosphate buffer (0.1 M)
[10] = Half life period in human plasma using phosphate buffer (0.1 M)
Homo sapiens = organism: Homo sapiens; test: Half life period in human plasma albumin using phosphate buffer (0.08 M); details: in vivo

SMILES	ILS (P388 [1])	T1/2 [2]	ILS (P388/CPA [3])	T1/2 [4]	ILS (P388 [5])	ILS (P388/CPA [6])	ILS (P388/CPA [7])	ILS (P388 [8])	T1/2 [9]	T1/2 [10]	T1/2 (Homo sapiens)
CC(CS(C)(=O)=O)OP(N)(=O)N(CCCl)CCCl (centres undefined)	30%	912 min	60%	402 min	10%	12%	28%	10%	–	–	–
O=P1(N(CCCl)CCCl)NC(O)CCO1 (centres undefined)	–	–	–	–	–	–	–	–	45 min	15 min	–
CS(=O)(=O)CCOP(N)(=O)N(CCCl)CCCl (centres undefined)	91%	354 min	100%	132 min	73%	28%	52%	36%	–	–	138 min
